Results: PubChem BioAssay (NCI)
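Protocol summary: plate cells (96-well), add compound at 5 concentrations, incubate 48 h, interpolate endpoints linearly. At the GI50, growth is halved. TGI marks complete inhibition of growth.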

Tested on: MDA-MB-468 breast
Experiment: NCI tumour cell line growth inhibition, 48 h

O=[N+]([O-])c1cccc(Oc2ccc([N+](=O)[O-])cc2[N+](=O)[O-])c1
GI50: 1510 nM | TGI: 3290 nM
